Calls of active or inactive are those of the source. The rule behind the calls is not given here.
Target: Neuronal acetylcholine receptor; alpha3/beta4 (Homo sapiens, UniProt P30926+P32297)
Test: Agonist activity at human alpha3beta4 nAChR
Type: protein-complex assay
In short: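 HEK tsA201 cells stably expressing the human receptor subtype, plated 24 h ahead at 37 °C, 5% CO2 in supplemented DMEM to a ~100% confluent monolayer. Washed with HEPES-buffered Krebs, loaded 1 h at room temperature with 50% Calcium 5 NW dye. Compounds as HCl salts from 0.01 M DMSO stocks, six concentrations 0.1–100 µM in HBK. Intracellular calcium fluorescence read every 1.5 s (ex 485/em 525 nm).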

Sequences of proteins named here, by UniProt entry; tags and fusion partners are left off. A change or cut given only in a name is not applied to a line headed by its entry.
UniProt P30926: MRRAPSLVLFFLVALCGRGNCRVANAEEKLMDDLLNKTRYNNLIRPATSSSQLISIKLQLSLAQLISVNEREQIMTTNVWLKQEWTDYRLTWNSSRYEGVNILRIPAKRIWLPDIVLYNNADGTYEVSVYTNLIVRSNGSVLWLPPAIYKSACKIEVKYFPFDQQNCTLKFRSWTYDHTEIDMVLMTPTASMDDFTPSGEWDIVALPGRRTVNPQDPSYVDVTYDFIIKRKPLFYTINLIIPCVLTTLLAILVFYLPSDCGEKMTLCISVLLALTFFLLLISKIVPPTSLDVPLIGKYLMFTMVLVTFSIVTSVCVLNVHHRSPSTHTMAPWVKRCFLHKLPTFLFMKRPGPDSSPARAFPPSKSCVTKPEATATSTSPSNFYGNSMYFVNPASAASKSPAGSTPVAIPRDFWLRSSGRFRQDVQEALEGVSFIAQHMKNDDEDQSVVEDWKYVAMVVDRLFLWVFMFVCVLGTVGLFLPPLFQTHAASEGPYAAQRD
UniProt P32297: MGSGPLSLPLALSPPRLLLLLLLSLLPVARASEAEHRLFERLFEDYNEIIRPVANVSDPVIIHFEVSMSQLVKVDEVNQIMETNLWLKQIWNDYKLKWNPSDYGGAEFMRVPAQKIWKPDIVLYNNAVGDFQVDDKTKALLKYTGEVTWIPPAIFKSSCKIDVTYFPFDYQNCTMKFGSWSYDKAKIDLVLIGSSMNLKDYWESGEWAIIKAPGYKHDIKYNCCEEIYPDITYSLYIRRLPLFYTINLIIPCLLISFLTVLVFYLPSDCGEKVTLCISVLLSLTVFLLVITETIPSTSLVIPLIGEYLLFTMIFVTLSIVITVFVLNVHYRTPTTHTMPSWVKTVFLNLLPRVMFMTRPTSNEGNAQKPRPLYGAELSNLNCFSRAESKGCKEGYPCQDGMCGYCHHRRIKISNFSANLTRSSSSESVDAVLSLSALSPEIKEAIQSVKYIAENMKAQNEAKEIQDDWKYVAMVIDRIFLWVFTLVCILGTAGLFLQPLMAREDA

Row | SMILES | Activity
1 | CCCOc1ccc(C(=O)Nc2cccc(Cl)n2)cc1 | inactive
2 | CCCOc1ccc(C(=O)Nc2cccc(Br)n2)cc1 | inactive
3 | C=CCOc1ccc(C(=O)Nc2cccc(Cl)n2)cc1 | inactive
4 | CCCOc1ccc(C(=O)Nc2cccc(C)n2)cc1 | inactive

From ChEMBL document CHEMBL2406998, “Discovery of benzamide analogs as negative allosteric modulators of human neuronal nicotinic receptors: pharmacophore modeling and structure-activity relationship studies” (Bioorg Med Chem, 2013)
